Assay results reported in ChEMBL document CHEMBL4602621, “Optimization of cyclic sulfamide derivatives as 11β-hydroxysteroid dehydrogenase 1 inhibitors for the potential treatment of ischemic brain injury” (Bioorg Med Chem Lett, 2020).

Chains of the proteins cited; added tags and fusions are not shown. Lines headed by an entry give the natural chain unless they say otherwise; changes in a name come on top.
UniProt P28845: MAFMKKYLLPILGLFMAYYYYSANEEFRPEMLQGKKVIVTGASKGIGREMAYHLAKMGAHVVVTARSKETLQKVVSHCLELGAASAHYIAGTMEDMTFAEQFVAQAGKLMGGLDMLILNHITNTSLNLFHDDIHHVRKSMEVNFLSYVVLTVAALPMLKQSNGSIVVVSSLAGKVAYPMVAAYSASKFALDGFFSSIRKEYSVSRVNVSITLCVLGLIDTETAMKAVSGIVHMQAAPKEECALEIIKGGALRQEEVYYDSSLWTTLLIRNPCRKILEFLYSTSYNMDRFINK

Molecular target: 11-beta-hydroxysteroid dehydrogenase 1 (Homo sapiens, UniProt P28845)
Test: Inhibition of human 11beta-HSD1 expressed in CHOK1 cells using XL665-labeled cortisol as substrate measured after 24 hrs by HTRF assay
Type: cell-based, CHO-K1

IC50: 1.63 µM
Structure (SMILES): CC1(C)[C@@H](OC(=O)CCC(=O)O)CC[C@]2(C)[C@H]3C(=O)C=C4[C@@H]5C[C@@](C)(C(=O)O)CC[C@]5(C)CC[C@@]4(C)[C@]3(C)CC[C@@H]12 [CARBENOXOLONE]
